The text below walks through data of patent publication US4820715A, “Anti-emetic quinuclidinyl benzamides” (Bristol-Myers Company, priority 1987, dated 1989).

Sequences of proteins named here, by UniProt entry; tags and fusion partners are left off.
UniProt P61169, whole entry: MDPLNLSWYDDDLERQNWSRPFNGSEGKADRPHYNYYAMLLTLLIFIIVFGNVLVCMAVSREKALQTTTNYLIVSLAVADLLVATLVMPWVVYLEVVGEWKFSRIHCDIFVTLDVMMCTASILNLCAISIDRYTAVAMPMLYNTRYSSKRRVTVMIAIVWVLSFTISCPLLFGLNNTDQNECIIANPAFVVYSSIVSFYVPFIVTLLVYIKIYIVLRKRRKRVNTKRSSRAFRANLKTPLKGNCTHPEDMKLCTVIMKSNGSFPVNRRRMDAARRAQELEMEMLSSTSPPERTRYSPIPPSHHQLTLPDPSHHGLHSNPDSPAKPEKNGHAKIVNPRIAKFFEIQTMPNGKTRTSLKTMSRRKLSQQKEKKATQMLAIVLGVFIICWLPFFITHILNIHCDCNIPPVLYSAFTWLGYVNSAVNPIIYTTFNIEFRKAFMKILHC

The assay deals with dopaminergic (D2) receptors (Rattus norvegicus, UniProt P61169). Put plainly: biochemical. Particulars: striatal rat brain homogenates, ^3H-spiperone, 37° C., 15 minutes; read-out: 3H-Spiperone Displacement IC50. The format is binding. How it is done:
Rats (150±10 g; Charles River) were decapitated, the corpus striatum dissected out and frozen on dry ice. The tissues were pooled and stored at -80° C. until used. Homogenates (Brinkmann Polytron) of the corpus striatum in cold HEPES.KOH buffer (final pH=7.4) were centrifuged at 39,000×G. The supernatant was discarded and the pellets were re-suspended in HEPES.KOH buffer and re-centrifuged as above.
Tests to determine the Inhibitory Concentration50 (IC50) of the compounds of Formula I and reference compounds versus ^3 H-spiperone were conducted as follows. Tubes containing either 100 μL of buffer mixture (for total binding), 100 μL of buffer mixture plus 100 μL of 10^-4 M D(+)-butaclamol (for blanks, i.e. non-specific binding), or 100 μL of buffer mixture containing 10^-7, 10^-6 or 10^-5 M test compound were prepared. To each were added 100 μL of a solution of ^3 H-spiperone (New England Nuclear) in buffer mixture (2000 c.p.m. in the incubation mixture) and 800 μL of the striatal tissue suspension. The tubes were then diluted to 1 mL with buffer mixture, giving a final concentration of 10^-8, 10^-7 or 10^-6 M test compound and approximately 100 pM ^3 H-spiperone. The samples were incubated at 37° C. for 15 minutes, filtered in vacuo on glass fiber filters and counted by liquid scintillation spectrometry. […] All samples were run in duplicate.

In general, IC50 refers to the point on the concentration scale where inhibition reaches its midpoint. On to `CCN(CC)CCNC(=O)c1cc(Cl)c(N)cc1OC` [Metoclopramide, reference compound], for which the 50% inhibitory concentration (IC50) was 310 nM.
